System: P. aeruginosa
Experiment: Broth microdilution MIC/MBC of conventional antibiotics, planktonic form
Format: cell-based, Pseudomonas aeruginosa
Conditions: MHB, 5 x 10^5 CFU/ml, 37 °C, 24 h, CLSI
Procedure: MICs and MBCs of conventional antibiotics were determined using a broth microdilution technique. […] Only P. aeruginosa was additionally tested for susceptibility to TOB (Sigma-Aldrich) (0.03–52 μM or 0.01–25 μg/ml). Bacterial suspensions (5 x 10^5 CFU/ml) were added to the microtiter plates, which were then incubated at 37 °C for 24 h. Antibiotic-free culture was used as a control. […] The results were confirmed using a microplate reader at OD620 (Sunrise™, TECAN, Australia). The plate count technique was further used to determine the MBC values on Mueller Hinton agar (MHA) (Himedia®). Each experiment was performed independently three times in triplicate.

CC1(C)S[C@@H]2[C@H](NC(=O)[C@H](N)c3ccc(O)cc3)C(=O)N2[C@H]1C(=O)O [AMX, amoxicillin]
MIC: 6250 µg/mL

Reference: publication PMC7743948, “D-LL-31 enhances biofilm-eradicating effect of currently used antibiotics for chronic rhinosinusitis and its immunomodulatory activity on human lung epithelial cells” (PLoS ONE, 2020)
